Values of other authors in paper PMC12018770, “DEAD‐Box Helicase 6 Blockade in Brain‐Derived Aβ Oligomers From Alzheimer's Disease Patients Attenuates Neurotoxicity” (MedComm, 2025).

System: AD patients
Conditions: ref [11], [12], [13], [14]; cited from earlier work
Source text: Various Aβ antibody drugs designed to clear Aβ plaques from the brain have shown promising therapeutic effects in animal models (e.g., AD mice). […] Thus, DDX6‐targeting treatments in the early stages of Aβ aggregation could prevent the formation of Aβ oligomers and attenuate their neurotoxicity, potentially avoiding the side effects associated with s ...

| Substance | efficacy in clinical trials (in words) |
| --- | --- |
| aducanumab [reference compound] | its efficacy in slowing or halting AD progression remains controversial |
| bapineuzumab [reference compound] | failed to demonstrate efficacy in improving cognitive function during key clinical trials |
